Laboratory results: ChEMBL document CHEMBL2311497, “An optimized RAD51 inhibitor that disrupts homologous recombination without requiring Michael acceptor reactivity” (J Med Chem, 2013)
Active and inactive are the calls of the source. The rule behind the calls is not given here.

Biological target: T1, DNA repair protein RAD51 homolog 1 (Homo sapiens) (UniProt Q06609)
T1 sequence (whole entry): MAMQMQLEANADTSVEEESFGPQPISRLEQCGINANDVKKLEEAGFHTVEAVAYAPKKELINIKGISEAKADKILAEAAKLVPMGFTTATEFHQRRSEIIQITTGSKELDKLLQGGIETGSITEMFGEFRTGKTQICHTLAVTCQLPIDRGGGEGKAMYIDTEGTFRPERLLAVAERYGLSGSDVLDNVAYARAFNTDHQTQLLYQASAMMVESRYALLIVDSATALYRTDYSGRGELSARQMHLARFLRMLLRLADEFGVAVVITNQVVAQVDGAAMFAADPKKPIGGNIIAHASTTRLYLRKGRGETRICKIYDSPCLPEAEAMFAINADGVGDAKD
Experiment: Inhibition of RAD51 in HEK293 cells assessed as stimulation of single strand annealing at 20 uM after 24 hrs by reporter gene assay based FACS analysis
Format: cell-based

With `O=C1C(Cl)=C(N2CCOCC2)C(=O)N1c1ccc(Cl)c(Cl)c1` the Activity was “Active”.
